Measured values: patent US20240325274A1, “SUPRAMOLECULAR AMINO ACID OR SALT THEREOF, AND PREPARATION METHOD THEREFOR AND APPLICATION THEREOF” (SUZHOU OULIT BIOPHARM CO., LTD., priority 2021, published 2024)

Experiments:
[1] = pH, appearance and smell of neutralized aqueous solutions; format: physicochemical; details: 4% in water with 0.54% sodium hydroxide (Table 6)
Procedure: Three sets of color cosmetics (lipstick+eyeliner) were applied to the arms of 5 subjects with similar areas and thicknesses. The cosmetics were washed with the aqueous solutions in Table 6 (1 g of each) and then rinsed with tap water (the detergency was graded by the 5 subjects comprehensively).
The preparation procedures are as follows: Two 500-g beakers were weighed on an electronic balance, and the weights of the beakers were recorded; a proper amount of deionized water was weighed and added to the beakers according to the formula, and the beakers were heated to 75-80° C. in a water bath. The temperature of the water in the beaker was measured by a thermometer. […] At the start of the stirring, a proper amount of arginine was added to beaker (1) and a proper amount of 10% aqueous sodium hydroxide solution was added to beaker (2). The mixtures were stirred for 1 min. The temperature of the beakers (1) and (2) was reduced to 25° C. by running tap water. The evaporated water in the two beakers in the preparation process was compensated by cooled deionized water to 100% on an electronic balance. The pH of the products in the beaker (1) and (2) was measured, the appearance was observed, and the smell was confirmed.

[2] = Qualitative household application test; details: 12% aqueous solution of sodium salt

For “N-lauroyl-L-alanine supramolecule [Example 1]”, the Appearance [1] was “Transparent”, the pH value [1] was 7.25 and the Irritation to hands [2] was “no irritation to hands”.
